The record followed here is ChEMBL document CHEMBL2406999, “Vialinin A is a ubiquitin-specific peptidase inhibitor” (Bioorg Med Chem Lett, 2013).

Sequences of proteins named here, by UniProt entry; tags and fusion partners are left off. A change or cut given only in a name is not applied to a line headed by its entry.
UniProt P54578: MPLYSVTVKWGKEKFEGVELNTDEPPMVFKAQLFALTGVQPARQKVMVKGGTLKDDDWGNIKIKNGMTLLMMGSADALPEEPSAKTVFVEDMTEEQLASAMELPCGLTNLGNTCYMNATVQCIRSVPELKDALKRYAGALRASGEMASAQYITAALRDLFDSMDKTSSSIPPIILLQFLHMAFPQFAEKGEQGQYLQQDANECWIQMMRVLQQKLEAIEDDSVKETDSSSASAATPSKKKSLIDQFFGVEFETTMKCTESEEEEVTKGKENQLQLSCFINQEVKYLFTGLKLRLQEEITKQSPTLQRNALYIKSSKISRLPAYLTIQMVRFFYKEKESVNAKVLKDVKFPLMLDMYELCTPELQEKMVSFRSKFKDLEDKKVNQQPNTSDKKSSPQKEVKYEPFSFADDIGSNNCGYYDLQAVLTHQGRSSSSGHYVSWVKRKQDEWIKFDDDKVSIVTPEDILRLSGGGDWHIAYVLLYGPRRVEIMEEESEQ

For the test, the target named is Ubiquitin carboxyl-terminal hydrolase 14 (Homo sapiens, UniProt P54578).

As a reminder, the IC50 is the concentration that inhibits the measured activity by half. Take `Cc1cc(C(=O)CN2CCCC2)c(C)n1-c1ccc(F)cc1`: the IC50 was 4 µM.
